Reference: patent US10537571B2, “Pyrimidine FGFR4 inhibitors” (priority 2013, dated 2020)

Assays:
Set-up in all cases: species or system nude mice
HUH7 tumor xenografts = experiment: In vivo efficacy in HUH7 hepatocellular carcinoma xenograft
HEP3B tumor xenografts = experiment: In vivo efficacy in HEP3B hepatocellular carcinoma xenograft
JHH7 tumor xenografts = experiment: In vivo efficacy in JHH7 hepatocellular carcinoma xenograft

With `C=CC(=O)Nc1cc(N2CCN(CC)CC2)ccc1Nc1cc(N(C)C(=O)Nc2c(Cl)c(OC)cc(OC)c2Cl)ncn1` [Compound 108, N-(2-(6-(3-(2,6-Dichloro-3,5-dimethoxyphenyl)-1-methylureido)pyrimidin-4-ylamino)-5-(4-ethylpiperazin-1-yl)-phenyl)acrylamide] the “sensitivity of xenograft model to compound” value (from here on “sensitivity”) (HUH7 tumor xenografts) was “intermediate sensitivity”, the “sensitivity” value (HEP3B tumor xenografts) was “most sensitive” and the “sensitivity” value (JHH7 tumor xenografts) was “least sensitive”.
